In patent US20020037514A1, “Identification of nuclear receptor-dependent coregulator recruitment” (priority 2000, published 2002):

Assays:
RXRβ [1] = molecular target: T1, RXRβ (Mus musculus, UniProt P28704); assay: biochemical
T1 sequence (P28704 1-520): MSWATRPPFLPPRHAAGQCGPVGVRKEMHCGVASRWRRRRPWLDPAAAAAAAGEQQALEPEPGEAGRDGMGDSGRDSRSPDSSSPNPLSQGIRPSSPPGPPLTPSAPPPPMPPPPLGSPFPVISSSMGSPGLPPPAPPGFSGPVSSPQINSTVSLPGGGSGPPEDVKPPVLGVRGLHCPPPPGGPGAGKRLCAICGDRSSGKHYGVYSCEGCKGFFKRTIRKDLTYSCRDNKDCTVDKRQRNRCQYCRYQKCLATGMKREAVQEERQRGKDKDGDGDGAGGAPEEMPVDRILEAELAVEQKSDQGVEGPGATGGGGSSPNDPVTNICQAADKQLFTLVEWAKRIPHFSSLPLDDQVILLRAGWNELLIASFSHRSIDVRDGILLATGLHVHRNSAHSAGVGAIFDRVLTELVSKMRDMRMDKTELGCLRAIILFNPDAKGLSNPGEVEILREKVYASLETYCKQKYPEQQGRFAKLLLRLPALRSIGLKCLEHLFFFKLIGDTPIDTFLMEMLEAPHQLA

RXRβ [2] = molecular target: T2, RXRβ (UniProt P28704); conditions: read-out: RXRβ EC50; CV-1 cells, RXR homodimers, mean ± standard deviation
T2 sequence (P28704 111-520 limits assumed): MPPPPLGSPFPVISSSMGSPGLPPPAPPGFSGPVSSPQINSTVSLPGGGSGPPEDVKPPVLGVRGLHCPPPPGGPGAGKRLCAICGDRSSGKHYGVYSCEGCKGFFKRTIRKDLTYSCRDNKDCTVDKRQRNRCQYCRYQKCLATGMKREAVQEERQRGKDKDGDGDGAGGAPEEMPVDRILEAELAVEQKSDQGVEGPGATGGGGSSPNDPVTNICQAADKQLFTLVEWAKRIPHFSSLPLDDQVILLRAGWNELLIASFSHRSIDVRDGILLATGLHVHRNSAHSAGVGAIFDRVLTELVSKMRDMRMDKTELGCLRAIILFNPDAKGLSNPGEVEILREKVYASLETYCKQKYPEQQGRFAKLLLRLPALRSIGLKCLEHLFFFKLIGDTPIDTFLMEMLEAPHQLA

## CC(/C=C/C1CC1(C)c1ccc2c(c1)C(C)(C)CCC2(C)C)=C\C(=O)O (centres unmarked)
RXRβ [1]
  Ki: 0.4 nM
RXRβ [2]
  EC50: 0.07 nM
